{
  "sequences": {"note": "The chains behind the UniProt entries cited, without tags or fusion partners. Where a name states a change or a piece, a line headed by the entry shows the natural chain unless it says otherwise. Residues count along the entry.", "UniProt Q00959, 20-1464 limits assumed": "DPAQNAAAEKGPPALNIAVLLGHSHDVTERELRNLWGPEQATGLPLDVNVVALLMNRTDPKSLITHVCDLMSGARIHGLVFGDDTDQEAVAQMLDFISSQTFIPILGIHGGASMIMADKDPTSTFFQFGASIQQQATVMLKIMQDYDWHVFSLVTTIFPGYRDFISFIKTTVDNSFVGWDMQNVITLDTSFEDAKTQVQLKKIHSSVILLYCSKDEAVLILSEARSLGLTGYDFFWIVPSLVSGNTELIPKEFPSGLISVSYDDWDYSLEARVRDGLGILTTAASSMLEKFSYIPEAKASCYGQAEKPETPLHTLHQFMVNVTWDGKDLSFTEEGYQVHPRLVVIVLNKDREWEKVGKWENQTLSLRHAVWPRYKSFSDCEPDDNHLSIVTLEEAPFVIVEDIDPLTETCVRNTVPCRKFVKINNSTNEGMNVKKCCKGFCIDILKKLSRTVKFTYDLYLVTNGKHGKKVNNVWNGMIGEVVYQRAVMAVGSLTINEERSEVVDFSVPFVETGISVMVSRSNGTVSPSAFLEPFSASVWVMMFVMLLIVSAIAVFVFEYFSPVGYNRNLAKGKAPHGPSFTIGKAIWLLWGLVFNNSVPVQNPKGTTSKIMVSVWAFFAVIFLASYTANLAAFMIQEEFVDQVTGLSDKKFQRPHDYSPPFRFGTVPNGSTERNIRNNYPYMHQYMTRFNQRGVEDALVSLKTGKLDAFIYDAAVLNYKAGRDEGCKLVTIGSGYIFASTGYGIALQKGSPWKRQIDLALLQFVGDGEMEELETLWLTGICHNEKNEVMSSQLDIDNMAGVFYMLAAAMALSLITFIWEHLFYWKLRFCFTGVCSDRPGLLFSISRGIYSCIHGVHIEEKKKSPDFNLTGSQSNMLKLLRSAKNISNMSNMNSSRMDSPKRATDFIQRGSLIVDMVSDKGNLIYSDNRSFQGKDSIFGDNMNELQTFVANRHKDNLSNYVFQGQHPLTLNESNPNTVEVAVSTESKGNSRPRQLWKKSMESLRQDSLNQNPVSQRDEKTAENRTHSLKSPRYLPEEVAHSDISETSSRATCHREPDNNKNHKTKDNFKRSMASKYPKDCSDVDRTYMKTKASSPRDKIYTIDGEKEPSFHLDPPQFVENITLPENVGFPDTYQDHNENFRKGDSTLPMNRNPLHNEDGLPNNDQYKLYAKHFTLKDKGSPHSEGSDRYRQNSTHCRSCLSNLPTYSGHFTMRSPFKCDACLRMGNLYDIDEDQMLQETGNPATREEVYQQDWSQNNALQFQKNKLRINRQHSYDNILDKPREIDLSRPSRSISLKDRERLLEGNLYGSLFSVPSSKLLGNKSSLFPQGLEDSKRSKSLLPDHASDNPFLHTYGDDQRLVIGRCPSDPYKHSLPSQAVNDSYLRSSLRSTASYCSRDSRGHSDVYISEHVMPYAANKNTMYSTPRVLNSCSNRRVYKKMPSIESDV"},
  "source": "paper PMC5033714",
  "about": "(Neuron, 2016)",
  "biological_target": "GluN1-CC/2A receptors (GluN1-N499C+Q686C) (Rattus norvegicus, UniProt P35439+Q00959, N499C/Q686C)",
  "type": "cell-based",
  "details": "100 μM glutamate alone; glycine 300 μM, 7CKA 10 μM, TCN-201 5 μM, MPX-004 10 μM, MPX-007 30 μM",
  "data": [
    {"compound": "NCC(=O)O", "note": "[glycine]", "values": [
      {"measurement": "effect on glutamate-activated responses from crosslinked GluN1-CC/2A", "value": "not potentiated"}
    ]}
  ]
}
